scFv variants of Ab-91 (heavy chain) against a SARS-CoV-2 spike peptide

Antigen: PDVDLGDISGINAS, a 14-residue peptide of the SARS-CoV-2 spike HR2 region.

Each scFv is VL, a (GGGGS)3 linker, VH, as in the parent Ab-91, and differs from it in the CDRs of the heavy chain only.
VL: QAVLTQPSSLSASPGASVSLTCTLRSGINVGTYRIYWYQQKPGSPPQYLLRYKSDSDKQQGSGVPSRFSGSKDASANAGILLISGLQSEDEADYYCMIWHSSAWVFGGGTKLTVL
VH: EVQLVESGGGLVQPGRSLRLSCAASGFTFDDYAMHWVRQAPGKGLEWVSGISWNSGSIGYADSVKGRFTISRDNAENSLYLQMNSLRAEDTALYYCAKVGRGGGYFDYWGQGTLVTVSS

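The library (AAYL51) carries one to three amino acid substitutions per variant, with no insertions or deletions. Affinity was read by AlphaSeq, a pooled yeast mating assay with surface-displayed partners. The frequency of each diploid, read from paired DNA barcodes, reflects how well the two displayed proteins bind. Scores were corrected for input abundance and mapped to Kd with protein pairs of known affinity run in the same pool. There are three technical replicates.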

The parent's heavy chain CDRs are GFTFDDYAMH, GISWNSGSIGYADSVK, VGRGGGYFDY; each variant's own CDRs replace them letter for letter.
Affinities are written as log10 Kd with Kd in nM; a lower number is a better binder.
A mean of the replicates is given; it leaves out those without a signal.
Where no diploid with the target was found in that replicate, the entry reads "ND": below detection, most likely a poor binder, though not proof of it.
Three control strains display no target. For library AAYL51, 21% of the pairings with them gave a signal, with a median of 4.54 and one signal in twenty below 3.26, so weak values seen in few replicates may be background. The control count says in how many pairings with the empty strains this scFv gave a signal, with their mean in brackets.

CDR-H1,CDR-H2,CDR-H3,log10 Kd (nM) by replicate,"log10 Kd (nM), mean",empty controls
GFVFDDIAMH,GISWNSGSIGYADSVK,VGRGVGYFDY,1.99 2.03 1.75,1.93,8 of 9 (5.01)
GFTFDDDAGH,GISWNWGSIGYADSVK,VGRGGGYFDY,ND ND ND,ND,0 of 9
GPTFDDYHMH,GISWNSGSIYYADSVK,VGRGGGYFDY,ND ND ND,ND,0 of 9
GFTFDDYAMH,GISWNSYPIGYADSVK,VGRMGGYFDY,4.88 4.58 ND,4.73,1 of 9 (3.08)
GFTFDDYAMH,GISWNSGSIGYADWVK,VLRGHGYFDY,ND ND ND,ND,2 of 9 (4.21)
GFTFDDYAMD,GISWNSGSIGYNDSVK,VGRYGGYFDY,ND 4.39 ND,4.39,2 of 9 (4.16)
GFTFDDYAMH,QISWNSGSIGYADSVK,VGRGFGYFDT,ND ND ND,ND,0 of 9
GFTFDDYAMH,GISWNSGSIGYAMSVK,VGRGGGVNDY,6.41 4.10 ND,5.25,5 of 9 (4.95)
GFTFDDYAMH,GISWNSGSIGYQDAVK,VNRGGGYFDY,2.65 3.57 3.12,3.11,1 of 9 (4.09)
RFTFDDYAMH,GIMWNSGSIGYEDSVK,VGRGGGYFDY,4.71 ND 5.11,4.91,1 of 9 (5.10)
GFTFDDYADH,GISWNSGSIGYADSVE,VGRGGGYFDE,ND ND ND,ND,0 of 9
GFTFDDYAMH,GISCNSCSIGYADSVK,VGRGGHYFDY,ND ND ND,ND,0 of 9
GFHFRDYAMH,GISWNSGAIGYADSVK,VGRGGGYFDY,1.38 1.08 0.18,0.88,0 of 9
GFKSDDYAMH,GISWNSGSIGYADSWK,VGRGGGYFDY,ND ND ND,ND,1 of 9 (5.52)
GFTFDDYAMH,GISWNSGSIGYADSVH,VGRGGWYFDY,ND ND ND,ND,1 of 9 (3.06)
GFTYDDYAMQ,GISWNVGSIGYADSVK,VGRGGGYFDY,ND ND ND,ND,1 of 9 (3.60)
GFGFDDYAMH,GISWNSGSIGYADSVK,VGRGEGYFFY,ND 4.87 ND,4.87,2 of 9 (4.20)
GFTFDDYAMH,GISWNSGSIGYACSVK,VCRGKGYFDY,ND 4.68 ND,4.68,2 of 9 (4.46)
GSTFDDYAMH,GISWNSGSIGNADSVK,VGRGGGLFDY,ND 4.28 4.30,4.29,3 of 9 (5.39)
GFTFDDYAMH,GISWRSPSIRYADSVK,VGRGGGYFDY,4.14 ND ND,4.14,1 of 9 (4.72)
GFTFDDYAMH,GISWNSGSIGYADSVP,VIRGGVYFDY,ND 4.86 ND,4.86,0 of 9
GFTFDDYAMH,GISWNSGSIGYADSVK,PGRGWGMFDY,3.33 ND ND,3.33,1 of 9 (4.22)
GFTFCDYAMR,GISWNSGSIGYADSVK,WGRGGGYFDY,ND 5.17 3.46,4.31,2 of 9 (4.73)
GFTFDDYAMR,GGSWNSGSIGYADSVK,VGRGGGYDDY,ND ND ND,ND,0 of 9
GFTFDDYAWH,GISANSGSIGYADSVK,VGRGGNYFDY,0.94 0.96 0.68,0.86,3 of 9 (4.55)
GFTFDDYAMH,GISWNSGSILYADSVK,VGRGGKYFDY,4.69 5.54 ND,5.12,6 of 9 (5.15)
GFTFDDYAMH,AISWNSGSIGYKDSVK,VYRGGGYFDY,ND 6.18 ND,6.18,1 of 9 (5.24)
GFTFDEYAMH,GISWNSGSIGYADSVK,VGGGGGYFCY,4.59 5.66 3.35,4.53,2 of 9 (4.48)
GFTFDDYAMH,GISWNSGSIGYNDSVK,VQRGGGYFKY,ND ND 3.44,3.44,3 of 9 (3.75)
GFTFDDYAMH,GISWNSGSIGYADCVK,VGRGGQSFDY,ND ND ND,ND,3 of 9 (3.98)
GFTFDDYAMH,GISWNSGSIIYANTVK,VGRGGGYFDY,ND ND ND,ND,1 of 9 (3.94)
GFWFDDYAMH,GISWNSGSIGYADSQK,VGRGGGYFDY,2.59 2.74 3.20,2.84,0 of 9
GFTFGDYAMH,GISWNSGSISYADSVK,VGRGGGYFDY,5.27 6.32 5.48,5.69,5 of 9 (5.41)
GFTFDDYAMH,GISWNSGSIGYADSVK,VGRGGGYVDY,ND ND ND,ND,1 of 9 (3.89)
GFTFDDYAMH,GISVNSGSIGYADSVK,VGRGSMYFDY,5.00 6.28 4.33,5.20,3 of 9 (4.92)
GFTRDDYAMH,GISWNGGSIGYADSVK,VPRGGGYFDY,ND ND ND,ND,1 of 9 (5.69)
GFTFDDYAMH,AITWNSGSIGYAKSVK,VGRGGGYFDY,ND ND ND,ND,0 of 9
GCTFDDYAWH,GISWNSGSIGYADSVK,VGRGGSYFDY,ND ND 4.58,4.58,3 of 9 (4.59)
GFTFDDGAMH,GIEWNMGSIGYADSVK,VGRGGGYFDY,ND ND ND,ND,0 of 9
GFTFDCYAMH,GISWNSGSIGEADSIK,VGRGGGYFDY,ND 4.33 ND,4.33,3 of 9 (4.14)
GFTKDDYAMH,GISWNLGSIGYADSVK,VGRGQGYFDY,ND ND ND,ND,0 of 9
GRTFDDYAMH,GIAWNSGSIGYTDSVK,VGRGGGYFDY,3.29 2.52 2.32,2.71,1 of 9 (2.38)
GFTFDDYAMH,GISWNSGMIGYGDSVK,VGRVGGYFDY,3.05 2.94 1.99,2.66,2 of 9 (3.25)
GFTFYDYAMH,GISWNSLSIGYADDVK,VGRGGGYFDY,2.25 2.25 2.24,2.25,2 of 9 (3.79)
GFTFEDRAMH,GISWNAGSIGYADSVK,VGRGGGYFDY,ND ND ND,ND,1 of 9 (4.25)
GMTFDDYAMH,GISWNSGSIGYARAVK,VGRGGGYFDY,ND ND ND,ND,1 of 9 (4.41)
GFTWDDYAMH,GISWNSGSIGYADSVK,VGRAGGYFDT,5.66 4.55 ND,5.11,4 of 9 (3.83)
GFTFDDYAMH,GISWNSGSIGYIDSVK,VGRVYGYFDY,1.66 1.75 1.89,1.77,2 of 9 (3.30)

Source: Engelhart et al. 2022 (doi:10.1038/s41597-022-01779-4), MIT Lincoln Laboratory and A-Alpha Bio; data file from the FLAb repository.